Experimental findings from BindingDB's records for doi:10.1007/bf02311185 (Case Western Reserve University, 1995) are described below.

The chains behind the UniProt entries cited, without tags or fusion partners.
UniProt P14842, whole entry: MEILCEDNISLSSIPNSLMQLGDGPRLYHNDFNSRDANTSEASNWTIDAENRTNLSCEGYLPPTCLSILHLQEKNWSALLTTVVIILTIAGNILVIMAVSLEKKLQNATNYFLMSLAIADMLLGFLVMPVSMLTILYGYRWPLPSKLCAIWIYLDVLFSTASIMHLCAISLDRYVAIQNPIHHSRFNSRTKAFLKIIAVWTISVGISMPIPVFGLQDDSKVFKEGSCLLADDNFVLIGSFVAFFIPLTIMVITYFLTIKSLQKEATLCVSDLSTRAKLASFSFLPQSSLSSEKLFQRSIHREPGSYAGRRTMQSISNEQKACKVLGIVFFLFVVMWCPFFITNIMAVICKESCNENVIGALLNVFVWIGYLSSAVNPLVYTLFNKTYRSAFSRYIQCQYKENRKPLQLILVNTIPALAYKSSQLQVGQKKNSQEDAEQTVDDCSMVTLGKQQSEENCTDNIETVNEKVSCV

This assay deals with 5-hydroxytryptamine receptor 2A (Rattus norvegicus, UniProt P14842).

As for `O=C(CCCN1CCC2(CC1)C(=O)NCN2c1ccccc1)c1ccc(F)cc1` [8-[4-(4-fluorophenyl)-4-oxidanylidene-butyl]-1-phenyl-1,3,8-triazaspiro[4.5]decan-4-one], the Ki (usually a dissociation constant, usually derived from enzyme kinetics or from competition with a known ligand) worked out at 0.3 nM.
